Test system: target DNA
Experiment: Sample pre-treatment with antimicrobial peptides before isothermal amplification
Settings: on average; sample pre-treatment with peptide
From the text: Pre-treatment of the samples with antimicrobial peptides gives increased amount of target DNA compared to normal thermal and alkaline sample preparation. Thus, the sample pre-treatment method of the present invention is well suitable with downstream amplification applications necessary for adapting the methods to POC.
SB-37 gained on average 2 times increase of the target DNA. The peptide sequence of Cecropin B analogue SB-37 is […].

Substance: Cecropin B analogue SB-37
- increase of the target DNA available for the isothermal amplification: 2 times

Reference: US11596939B2, “Lamp component distribution in a microfluid cell” (priority 2017, dated 2023)
